# Data taken from PubChem BioAssay AID1530 (NMMLSC, 2009).
# Only a part is listed here, and it is no random draw. Calls of active or inactive are those of the source. Rule as the data show it: active = percent response above about 24% (passing the limit was not always enough); inactive = the rest.
# Tested on: MEKK2 (MAP3K2) mutant PB1 domain binding to MEK5, human
# Assay: MEK5 binding signal on mutant MEKK2 PB1, primary screen, biochemical, multiplex bead flow cytometry, Alexa488-MEK5 (AID 1530)
# Conditions: at 10 µM, stronger effect = higher value
row,Structure (SMILES),percent response
1,O=[N+]([O-])c1cccc(NC2=NCC(CBr)S2)c1 (stereo not drawn),inactive: -2%
2,O=C(O)CNc1ccc([As](=O)(O)O)cc1,inactive: 1%
3,CC(C)(C)C(=O)NC(Sc1ccncn1)C(Cl)(Cl)Cl (stereo not drawn),inactive: -2%
4,O=[N+]([O-])c1ncn(CCn2ncnc2[N+](=O)[O-])n1,inactive: 2%
5,O=C(Nc1cc([As](=O)(O)O)ccc1O)c1ccccc1,inactive: -6%
6,CC(C)=N/N=C(\N)N[N+](=O)[O-],inactive: -6%
7,CN(C)C(=O)OCCc1n(C)cc[n+]1C,inactive: -4%
8,CC1CCN(C(=O)Oc2c(Cl)cc(Cl)c3cccnc23)CC1,inactive: -5%
9,Nc1ccc([As](=O)(O)c2ccc(N)cc2)cc1,inactive: -4%
10,C[N+]1=C2C=CC=CC=C2SC12C([N+](=O)[O-])=CC([N+](=O)[O-])=C[C-]2[N+](=O)[O-] (stereo not drawn),inactive: -33%
11,CCN(/C(=N/P(=O)(N1CCOCC1)N1CCOCC1)N1CCOCC1)c1ccc(OC)cc1,inactive: 1%
12,CC(=O)N1C2C3N(C(C)=O)C1C1N(C(C)=O)C(C(N1C(C)=O)N3C(C)=O)N2C(C)=O,inactive: 8%
13,O=[N+]([O-])c1cccc2n[nH]nc12,inactive: 1%
14,Cc1ccc(NP(=O)(Oc2ccccc2)Oc2ccccc2)nc1,inactive: -6%
15,O=[N+]([O-])c1cc([N+](=O)[O-])c(CCNc2ccccc2)c([N+](=O)[O-])c1,inactive: 4%
16,CCc1nc2c(n1)c1c(non1O)c1c2no[n+]1[O-],inactive: -1%
17,COc1ccc(C2=NCC(CBr)S2)cc1 (stereo not drawn),inactive: -1%
18,Nc1cc(N)c2nonc2c1[N+](=O)[O-],inactive: 15%
19,CC(C)CC(=O)NC(Sc1ccc(Cl)cc1)C(Cl)(Cl)Cl (stereo not drawn),inactive: -6%
20,Oc1ccccc1CNc1ccccn1,inactive: -5%
21,O=C(NC(Sc1ccncn1)C(Cl)(Cl)Cl)c1ccccc1 (stereo not drawn),inactive: 0%
22,Cc1c2non([O-])c-2c(C)[n+](=O)[n+]1[O-],inactive: -1%

row,Structure (SMILES),percent response
1,COc1ccccc1OP(=O)(Nc1ccc(C)cn1)Oc1ccccc1OC,inactive: -7%
2,Cc1ccc(OP(=O)(Nc2nccs2)Oc2ccc(C)cc2)cc1,inactive: -10%
3,CN1CCCC(OC(=O)C(c2ccccc2)c2ccccc2)C1 (stereo not drawn),inactive: 5%
4,Clc1ccc(Cl)c(NC2=NCC(CBr)S2)c1 (stereo not drawn),inactive: 4%
5,NC(=O)c1cc([N+](=O)[O-])cc([N+](=O)[O-])c1N,inactive: -13%
6,CCN(N=Nc1nonc1N)c1nonc1N,inactive: 0%
7,Nc1cccc2ccc([As](=O)(O)O)cc12,inactive: -3%
8,O=[N+]([O-])c1cc([N+](=O)[O-])c(CCN2CCOCC2)c([N+](=O)[O-])c1,inactive: 1%
9,Cc1cc(SC(NC(=O)c2ccc(F)cc2)C(Cl)(Cl)Cl)ncn1 (stereo not drawn),inactive: 8%
10,CCOP(=O)(Nc1ccccc1)OCC,inactive: 1%
11,CN(C(=O)Cc1ccc(Cl)c(Cl)c1)[C@H]1CCCC[C@@H]1N1CCCC1,inactive: 5%
12,Cc1ccc(NP(=O)(Oc2ccccc2F)Oc2ccccc2F)nc1,inactive: 21%
13,CC(=O)Nc1ccc([As](=O)(O)O)cc1,inactive: 4%
14,O=C(O)c1ccccc1[As](=O)(O)O,inactive: 9%
15,O=P(Nc1nc2ccc(Cl)cc2s1)(c1ccccc1)c1ccccc1,inactive: -5%
16,Cc1ccccc1OP(=O)(Nc1ccccn1)Oc1ccccc1C,inactive: -22%
17,O=c1c2cc([N+](=O)[O-])ccc2[nH]c2c([N+](=O)[O-])cc([N+](=O)[O-])cc12,inactive: -12%
18,CN(C)C(=O)Oc1noc2ccccc12,inactive: 0%
19,COC(=O)c1cc2c(s1)N=C(c1ccccc1)N(C)P2(=O)N1CCOCC1 (stereo not drawn),inactive: 15%
20,CC(=O)NC(SC(=S)N(CC(C)C)CC(C)C)C(Cl)(Cl)Cl (stereo not drawn),inactive: 1%
21,Cc1ccc(OP(=O)(Nc2ccccn2)Oc2ccc(C)cc2)cc1,inactive: -2%
22,O=C(OC1CN2CCC1CC2)c1ccccc1 (stereo not drawn),inactive: -10%

row,Structure (SMILES),percent response
1,CCC(=O)N1C2C3N(C(=O)CC)C1C1N(C(=O)CC)C(C(N1C(=O)CC)N3C(=O)CC)N2C(=O)CC,inactive: 6%
2,O=C(NC1CCS(=O)(=O)C1)NP(=S)(Oc1ccccc1)Oc1ccccc1 (stereo not drawn),inactive: -2%
3,CCNC(=S)/N=C(\N)N[N+](=O)[O-],inactive: 10%
4,c1ccc(-c2nn[nH]n2)c(-c2nn[nH]n2)c1,inactive: -16%
5,Cc1ccc(NP(=O)(Oc2cccc(C)c2)Oc2cccc(C)c2)nc1,inactive: -21%
6,CCOC(=O)NC(Sc1ccccc1)C(Cl)(Cl)Cl (stereo not drawn),inactive: 2%
7,CC(=O)Nc1ccc([As](=O)(O)O)c(O)c1,inactive: -11%
8,CC(=O)Nc1ccc(Oc2c([N+](=O)[O-])cc([N+](=O)[O-])cc2[N+](=O)[O-])cc1,inactive: -2%
9,CC(=O)c1ccc(N2CC2c2ccncc2)cc1 (stereo not drawn),inactive: 0%
10,C[C@H]1OP(=O)(Oc2ccccc2)C[C@@H]2O[C@@H]21 (stereo partly drawn),inactive: 4%
11,C[C@@H]1C=CCP(=O)(Oc2ccccc2)O1 (stereo partly drawn),inactive: 3%
12,CC(C)(C)C(=O)NC(Sc1ccccc1)C(Cl)(Cl)Cl (stereo not drawn),inactive: -10%
13,O=P1(Nc2nc3ccc(Cl)cc3s2)COc2ccccc2O1 (stereo not drawn),inactive: 3%
14,CCOc1ccc(C2=NCC(CBr)S2)cc1 (stereo not drawn),inactive: -1%
15,c1nnnn1CCn1cnnn1,inactive: 3%
16,O=P(Nc1nccs1)(c1ccccc1)c1ccccc1,inactive: 3%
17,CC(C)C(=O)NC(Sc1ccccc1)C(Cl)(Cl)Cl (stereo not drawn),inactive: 0%
18,C(Cc1nn[nH]n1)Cc1nn[nH]n1,inactive: 1%
19,Nc1ccc([As](=O)(O)c2ccc([N+](=O)[O-])cc2)cc1,inactive: -3%
20,O=C(OC1CN2CCC1CC2)c1cccc(Cl)c1 (stereo not drawn),inactive: 5%
21,CC(=O)NC(SC(=S)N(C)C)C(Cl)(Cl)Cl (stereo not drawn),inactive: -1%
22,O=[N+]([O-])c1ncn(CCn2cnc([N+](=O)[O-])n2)n1,inactive: 2%

row,Structure (SMILES),percent response
1,O=[N+]([O-])c1ccc(O)c(/C=N/Nc2ccc([N+](=O)[O-])cc2[N+](=O)[O-])c1,inactive: 1%
2,O=[As](O)(c1ccccc1)c1ccc(O)cc1,inactive: 6%
3,O=P(Nc1nc2ccccc2s1)(c1ccccc1)c1ccccc1,inactive: -3%
4,C[C@H]1OP(=O)(Oc2ccccc2)[C@H](O)[C@H](O)[C@H]1N=[N+]=[N-] (stereo partly drawn),inactive: 4%
5,CN(C)C1(CNC(=O)c2ccc(Cl)c(S(N)(=O)=O)c2)CCCCC1,inactive: 5%
6,O=P(Nc1ccccn1)(c1ccc(Br)cc1)c1ccc(Br)cc1,inactive: 2%
7,Cc1ccc(OCC(=O)OC2CN3CCC2CC3)cc1 (stereo not drawn),inactive: 1%
8,O=[As](O)(c1cccs1)c1cccs1,inactive: 9%
9,O=P1(Nc2ccc(Br)cn2)COc2ccccc2OC1,inactive: -3%
10,Nc1cccc([As](=O)(O)c2ccccc2)c1,inactive: 5%
11,O=P1(Nc2ncccn2)COc2ccccc2OC1,inactive: -3%
12,O=C(/C=C/c1ccccc1)OC1CN2CCC1CC2 (stereo not drawn),inactive: 1%
13,CN(C)C1(CNC(=O)c2ccc(S(C)(=O)=O)cc2)CCCCC1,inactive: -12%
14,Cc1ccc(C(=O)OC2CN3CCC2CC3)cc1 (stereo not drawn),inactive: 1%
15,CC1CCC(C(C)C)C(OP(=O)(Nc2ccccn2)c2ccccc2)C1 (stereo not drawn),inactive: -3%
16,O=[As](O)(c1ccccc1Br)c1ccccc1Br,inactive: -6%
17,CC1(CBr)Cn2c(nc3ccccc3c2=O)S1 (stereo not drawn),inactive: 18%
18,CN(C(=O)Cc1ccc(Cl)c(Cl)c1)[C@@H]1CCCC[C@H]1N1CCCC1,inactive: 5%
19,CC(C)/C=N\N=C(\N)N[N+](=O)[O-],inactive: 5%
20,Clc1n[nH]nc1-c1nn[nH][15n]1,inactive: 1%
21,CC(C)(C)C(=O)NC(Sc1ncccn1)C(Cl)(Cl)Cl (stereo not drawn),inactive: -6%
22,CCOP(=O)(Nc1ccc(C)cn1)OCC,inactive: 3%

row,Structure (SMILES),percent response
1,CN(CCCl)Cc1cc(Cl)c(NC2=NCCN2)c(Cl)c1,inactive: 10%
2,CCC1=CC2Cc3nc4ccc(Cl)cc4c(N)c3C(C1)C2 (stereo not drawn),inactive: 21%
3,O=P1(Nc2ccccn2)COc2ccccc2OC1,inactive: 2%
4,CCOP(=O)(NC(=NC(C)c1ccccc1)NC(C)c1ccccc1)OCC (stereo not drawn),inactive: 2%
5,COc1cc(C2NCCC3(OCCO3)C2(C)C)cc(OC)c1OC (stereo not drawn),inactive: -3%
6,CCOP(=O)(Nc1cccc2ccccc12)OCC,inactive: -2%
7,CCCOP(=S)(Nc1nc(N)cc(=O)[nH]1)OCCC,inactive: 2%
8,Cc1ccc(NCCc2c([N+](=O)[O-])cc([N+](=O)[O-])cc2[N+](=O)[O-])cc1,inactive: -2%
9,Nc1cccc2c([As](=O)(O)O)cccc12,inactive: 3%
10,Cc1cccc(OCC(=O)OC2CN3CCC2CC3)c1 (stereo not drawn),inactive: -12%
11,O=[As](O)(c1cccc(O)c1)c1cccc(O)c1,inactive: -14%
12,O=[As](O)(O)c1cccnc1,inactive: 5%
13,COc1cc(C(=O)NCC2(N3CCOCC3)CCCCC2)cc(Cl)c1OC(C)C,inactive: 0%
14,CS(=O)(=O)c1ccc(Cl)c(NC(=O)COC(=O)C(O)(c2ccccc2)c2ccccc2)c1,inactive: 5%
15,O=C(OC1CN2CCC1CC2)c1ccc(Cl)cc1 (stereo not drawn),inactive: 8%
16,O=[N+]([O-])c1ccc2c(c1)nnn2O,inactive: 7%
17,CN(C(=O)Cc1ccc(Cl)c(Cl)c1)[C@H]1CC[C@@]2(CCCO2)C[C@@H]1N1CCCC1,inactive: 0%
18,CN(C(=O)Cc1ccccc1)[C@@H]1CC[C@]2(CCCO2)C[C@H]1N1CCCC1,inactive: 1%
19,CCOP1(=S)c2c(C)nn(CCC#N)c2N=C(c2ccc(F)cc2)N1C (stereo not drawn),inactive: 2%
20,NC(=O)Nc1ccc([As](=O)(O)O)cc1,inactive: 3%
